Columns and labels:
[1] = cited from earlier work
[2] = test system: EpiIntestinal™ microtissues
[3] = test system: EpiIntestinal™ microtissues; remark: listed apart in the source
[4] = Test material solubility limit for top test concentration; assay type: physicochemical

Row | Substance | In vivo genotoxicity tests [1] | %MN induction (result in words) [2] | Karyorrhectic cells (cytome analysis) [2] | Loss/reduction in cell viability [3] | Concentration above which test material is insoluble (top test concentration) [4]
1 | Astaxanthin esters | - | did not induce significant increase in %MN | non-significant increase in karyorrhectic cell population | ~20% | 125 µg/mL
2 | Glycidamide | + MN & DNA adduct |  |  |  | 
